# From patent US12084472B2 (Ardelyx, Inc., priority 2015, dated 2024)
# Amino acid sequences for entries named in this document (tags omitted).
# UniProt Q8TDU6, whole entry: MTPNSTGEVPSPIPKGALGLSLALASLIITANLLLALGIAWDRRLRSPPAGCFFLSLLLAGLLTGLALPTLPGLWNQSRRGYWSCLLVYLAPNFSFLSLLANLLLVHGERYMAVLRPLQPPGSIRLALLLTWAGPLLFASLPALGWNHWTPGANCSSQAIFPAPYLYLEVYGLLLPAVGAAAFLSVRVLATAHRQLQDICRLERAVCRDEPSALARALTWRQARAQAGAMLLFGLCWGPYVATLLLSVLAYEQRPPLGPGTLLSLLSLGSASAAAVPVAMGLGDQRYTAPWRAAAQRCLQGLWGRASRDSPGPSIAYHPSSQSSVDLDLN
# Molecular target: human TGR5 (Homo sapiens, UniProt Q8TDU6)
# Assay: Cell-based TGR5 assay (cAMP generation, HTRF)
# Details: HEK293 cells stably transfected with human TGR5; cAMP by HTRF; 30 minutes at 37° C.
structure (smiles),measurement,value
O=C(N[C@@H](CO)[C@@H](O)[C@H](O)[C@H](O)CO)c1ccc(OCc2ccc(Cl)c(COC3(c4cnccc4-c4ccccc4OC4CC4)CC3)c2)nc1,pEC50 Human TGR5,B (B is a pEC50 of 6 to 6.9)
